The experiment deals with substrate B (SpyCatcher-M13-LPETG-SpyTag(DA)), with the original M13 (M13-1).

Take “catalyst C (CaM-SrtA), fusion of calmodulin and sortase A”: the yield of product P at 8 h with 0.1 equiv of C, against ∼10% without catalyst (SDS-PAGE densitometry) amounted to 56%.

Values taken from PMC12291137.
